Data published in ChEMBL document CHEMBL1126099, “Synthesis and biological characterization of alpha-(4-fluorophenyl)-4-(5-fluoro-2-pyrimidinyl)-1-piperazinebutanol and analogues as potential atypical antipsychotic agents” (J Med Chem, 1992).

Sequences of proteins named here, by UniProt entry; tags and fusion partners are left off.
UniProt P61169, whole entry: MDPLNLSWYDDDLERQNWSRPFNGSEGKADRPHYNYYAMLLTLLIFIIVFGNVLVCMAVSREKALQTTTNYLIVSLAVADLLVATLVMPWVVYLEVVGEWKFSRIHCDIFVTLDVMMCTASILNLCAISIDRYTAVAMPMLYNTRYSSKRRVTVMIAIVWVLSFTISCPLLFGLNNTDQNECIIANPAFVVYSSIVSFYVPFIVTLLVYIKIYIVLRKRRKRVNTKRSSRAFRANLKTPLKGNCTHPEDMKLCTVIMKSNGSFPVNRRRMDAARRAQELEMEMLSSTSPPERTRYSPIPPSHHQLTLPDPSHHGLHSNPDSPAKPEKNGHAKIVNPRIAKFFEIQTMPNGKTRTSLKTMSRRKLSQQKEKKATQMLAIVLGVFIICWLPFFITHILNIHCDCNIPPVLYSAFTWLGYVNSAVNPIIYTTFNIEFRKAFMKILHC
UniProt Q9R0C9, whole entry: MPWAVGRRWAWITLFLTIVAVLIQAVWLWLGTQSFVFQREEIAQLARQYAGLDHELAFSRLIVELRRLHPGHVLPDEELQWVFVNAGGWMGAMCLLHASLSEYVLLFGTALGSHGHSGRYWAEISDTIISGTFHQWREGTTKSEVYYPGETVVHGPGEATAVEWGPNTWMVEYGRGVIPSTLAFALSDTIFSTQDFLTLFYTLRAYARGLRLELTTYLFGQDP

How the values were obtained:
D(2) dopamine receptor = D(2) dopamine receptor (Rattus norvegicus, UniProt P61169); assay: In vitro inhibitory against radioligand [3H]spiperone binding to rat striatal Dopamine receptor D2
[1] = target: Sigma non-opioid intracellular receptor 1 (Rattus norvegicus, UniProt Q9R0C9); assay: Displacement of (+)-[3H]-3-PPP from rat cortical sigma site

IC50 (D(2) dopamine receptor)	IC50 [1]	SMILES
494 nM	–	O=C(CCCN1CCN(c2ncc(F)cn2)CC1)c1ccc(F)cc1
1860 nM	–	O/N=C(\CCCN1CCN(c2ncc(F)cn2)CC1)c1ccc(F)cc1
–	57 nM	O=C(CCCN1CCN(c2ncc(Cl)cn2)CC1)c1ccc(F)cc1
